Paper PMC3570733 (Biochemistry, 2013)

Tests used:
[1] = system: BcerKBAB4_1335; settings: 25 °C; expressed with 2,2'-bipyridyl, Mn (1.0) Zn (0.6) per monomer
[2] = substrate: N[C@H](COP(=O)(O)O)Cc1c[nH]cn1; assay: purified protein; settings: 25 °C
[3] = expressed without 2,2'-bipyridyl, Fe (2.6) Zn (0.4) per monomer
[4] = enzyme as isolated, Mn (1.1) Zn (0.3) per monomer
[5] = enzyme as isolated, Zn (0.4) Fe (0.3) per monomer
[6] = enzyme as isolated, Mn (1.0) Zn (0.4) Fe (0.3) per monomer

Molecule: N[C@H](COP(=O)(O)O)Cc1c[nH]cn1 [L-histidinol phosphate]
- Km [1]: 1300 ± 200 µM

B1: MCCL_0344 (Macrococcoides caseolyticum JCSC5402) (protein)
chain: MKVDFHIHLEEGPYTNNFFNKTITSIDTVKGIQATHTLDDIERKAQLFNERMEKGDYSEWWLDLYLEMSLQKGLKQVGIVDHLYRFQETRNYFLKYMDVSDTDLGCRQREWLNQVMTHKMDDFVTFINSQKEKWDKAGVELKLGIEADYFIGGEEELKSLLAPYEFDYIIGSVHFNHGWGFDNPELENKFNEYDLVKLYTDHFNTVIKAAESGIFSFIAHLDNLKVFNYRPEEALLIPLYEQVAEALAKNDVATEVNVGLKYRYPVKEQCPSERFIKVLSEYDVKFTTSSDSHFPHDIGIYNDEIRNLLKRNGVKSIVTFSKMKREEKDIKSIIH
- Km ([2]; enzyme as isolated, Mn (0.9) Fe (0.6) Zn (0.3) per monomer): 1500 ± 300 µM

B2: BSU29620 (Bacillus subtilis subsp. subtilis str. 168) (protein)
chain: MQKRDGHIHTPFCPHGSNDTLRQYAEEALKKGFESITFTEHAPLPPSFTDPTPLKDSAMAQASLERYIHEISGLKKEYRGQLSIRTGLEVDYIAEFEDEITLFLDTYGPYLDDSILSVHFLRTDSSYLCLDYDEHTFKELISACGSIEAVYEQYYRSIYSSIVASLGVYKPKRVGHITLVQKFIKLFPYSMSEHIRGLVSLCLNAIEENGMELDFNTSGLRKTYAGGIYIEDWMLNEAKQKKIPLVFGSDAHQAGDVGYAYEAFLERC
- Km [2, 3]: 100 ± 10 µM
- kcat [2, 3]: 0.37 s⁻¹
- kcat/Km [2, 3]: 3700 M⁻¹ s⁻¹

B3: BCE_1533 (Bacillus cereus ATCC 10987) (protein)
chain: MKVDYHIHLEEGPYSIGWLAKINESLQHYEPLKEEKHSMEWLVKIQERLQRRVNEGPFTTKWIDLYLEEALRKGIKEVGIVDHLYRFYEAKEYYEKYVDISDSGLGRLQKEWLDQVRVASLHDFTKAIEEAKERWSKRGVTLKLGIEADYFIGGEQQLQSLLALGDFDYVIGSVHFLNGWGFDNPDTKEYFKEHDLYALYDTFFKTVECAVRSELFDIIAHLDNIKVFNYRLDENEQISYYKKIARALVETNTATEINAGLYYRYPVREMCPSPLYLQVLAKHEVPITLSSDAHYPNDLGKYVEENIKTLRNHDIAHLATFTKRVRTMRLLEEVTISK
- Km ([2]; enzyme as isolated, Mn (1.4) Zn (0.4) per monomer): 1500 ± 100 µM

B4: BH3206 (Halalkalibacterium halodurans C-125) (protein)
chain: MGKHDGHVHTPFCPHGTKDSFDAYCERAISLGFTSLSFTEHAPLPKGFTDPTPAQDSSIGWNELDDYIHTLSSIKKAYRDQLTIYIGLEVDFIEGFEEEICTFLNEYGPLLDDSLLSVHFLKHSDRYFCIDYSPDVFAVAIRTFGSIQAVYDTYYRTLERSITSELGPYKPKRIGHMTLVNKFQKKFPAPSTEHQKKSQLEILQLVKKHGYSLDYNGAGFIKPLCGESYPPESIAKEAVALGIPLIYGSDAHQAKALATGWEQMTPTLKNQDE
- Km [2, 4]: 640 ± 80 µM
- kcat [2, 4]: 28 s⁻¹
- kcat/Km [2, 4]: 44000 M⁻¹ s⁻¹

B5: SMU_1486c (Streptococcus mutans UA159) (protein)
chain: MRDNHLHTHFSYDSDASFEDYLTHYDGEIVTTEHYDLSNPYTQQDDVPDYEAYSKEIAELNAKYGNRIKRGIEIGYYQPREADILSFLADKDYDLKLLSVHHNGVNDYLDDEVADMDKETIIQEYLDKLEYAIGRVEADVLAHFDYGFRLFDLTVDELKTHEAQLRRIFHKMIDHNLAFELNSKSMYLYGHEHLYRYALSLVKNLGCHKYTIGSDGHKLEHFRLAFDKIQDILDEYGIEEGEII
- Km [2, 5]: 580 ± 70 µM
- kcat [2, 5]: 0.31 s⁻¹
- kcat/Km [2, 5]: 530 M⁻¹ s⁻¹

B6: BBR47_00270 (Brevibacillus brevis NBRC 100599) (protein)
chain: MLIDYHLHLEEGPFSLRWLDRTNMALDHFYPLTEPRHTRAWLLDSLARLNNRMSLGAYDPSWIDLYLREALNKGLKEVGIVDHLYRFREARPYFERYMELGDTELGRLQRTWLNQVCTESLSDFCVAIEEAKQRWSASGVELRLGLEADYFIGGEAELESLLAGASWDYVIGSVHFLQGWGFDNPETRHLFEQHDLKQLYTDFFHTVESMIRSNLFDFVAHLDNLKVFSYRPEESELVPYYHRIATALKETDTATEINAGLYYRYPVQEMCPSPAFLDVLVAHGVPLTLSSDAHFPDDIGRYVAVNLEILDSMGVTEIATFFGRQRIMRPICYA
- Km ([2]; enzyme as isolated, Zn (1.6) Mn (0.3) per monomer): 2600 ± 300 µM

B7: GK2799 (Geobacillus kaustophilus HTA426) (protein)
chain: MRDGHIHTPFCPHGSQDPLEAYVERAIELGYTDISFTEHAPLPERFIDPTPNQDCSMKLSQLERYLHAVAEVKARYRNDIAIRVGLEVDFIPGFEEETTRLLDEVGPLLDDSILSVHFLAHEGQYVCLDYSEDMFADIVRLFGSVERVHRAYYETVLQSIRTELGRYKPRRIGHMTLVRKFQRRFPCLEPMDEWIVAILDDIKQFGYELDYNGAGAAKPLCLEPYPPGGVIAEARRRGIPIVYGSDAHRAADLHQGRERMDREALSVDNRPQPS
- Km [2, 6]: 8000 ± 3000 µM
- kcat [2, 6]: 7.6 s⁻¹
- kcat/Km [2, 6]: 900 M⁻¹ s⁻¹
